This note sets out measurements from article PMC5573420, “Correlation between human ether‐a‐go‐go‐related gene channel inhibition and action potential prolongation” (British Journal of Pharmacology, 2017).

This assay concerns hiPSC-CMs. The experiment in a line: Optical measurement of action potential duration (APD90) in hiPSC-CMs using voltage-sensitive dye di-4-ANEPPS. Particulars: Homo sapiens.

As for `Cc1ccc(CCN(C)CCOc2ccc(C)cc2)cc1`, the activity at 0.001 µM (0.5 h, read-out: Changes in APD90 in hiPSC-CMs, 1 nM, 30 min exposure) came out at 122%. Further, the activity at 0.01 µM (0.5 h, read-out: Changes in APD90 in hiPSC-CMs, 10 nM, 30 min exposure) was 96%. Moreover, where the note is “0.5 h, read-out: Changes in APD90 in hiPSC-CMs, 30 nM, 30 min exposure”, the activity at 0.03 µM came out at 101%. In addition, for the setting “0.5 h, read-out: Changes in APD90 in hiPSC-CMs, 100 nM, 30 min exposure”, the activity at 0.1 µM came out at 112%. The activity at 0.3 µM (0.5 h, read-out: Changes in APD90 in hiPSC-CMs, 300 nM, 30 min exposure) was about 170%. Moreover, the activity at 1 µM (0.5 h, read-out: Changes in APD90 in hiPSC-CMs, 1000 nM, 30 min exposure) was 263%. The EC (50% APD prolongation) (read-out: D150 (concentration that prolongs the AP by 50%)) came out at 0.215 µM.
